This passage reports Ratio IC50 results from ChEMBL document CHEMBL3091342, “Preparation, in vitro evaluation and molecular modelling of pyridinium-quinolinium/isoquinolinium non-symmetrical bisquaternary cholinesterase inhibitors” (Bioorg Med Chem Lett, 2013).

Protein sequences, listed by entry. Tags and fused reporters are not part of them. Lines headed by an entry give the natural chain unless they say otherwise; changes in a name come on top.
UniProt P06276, whole entry, looked up: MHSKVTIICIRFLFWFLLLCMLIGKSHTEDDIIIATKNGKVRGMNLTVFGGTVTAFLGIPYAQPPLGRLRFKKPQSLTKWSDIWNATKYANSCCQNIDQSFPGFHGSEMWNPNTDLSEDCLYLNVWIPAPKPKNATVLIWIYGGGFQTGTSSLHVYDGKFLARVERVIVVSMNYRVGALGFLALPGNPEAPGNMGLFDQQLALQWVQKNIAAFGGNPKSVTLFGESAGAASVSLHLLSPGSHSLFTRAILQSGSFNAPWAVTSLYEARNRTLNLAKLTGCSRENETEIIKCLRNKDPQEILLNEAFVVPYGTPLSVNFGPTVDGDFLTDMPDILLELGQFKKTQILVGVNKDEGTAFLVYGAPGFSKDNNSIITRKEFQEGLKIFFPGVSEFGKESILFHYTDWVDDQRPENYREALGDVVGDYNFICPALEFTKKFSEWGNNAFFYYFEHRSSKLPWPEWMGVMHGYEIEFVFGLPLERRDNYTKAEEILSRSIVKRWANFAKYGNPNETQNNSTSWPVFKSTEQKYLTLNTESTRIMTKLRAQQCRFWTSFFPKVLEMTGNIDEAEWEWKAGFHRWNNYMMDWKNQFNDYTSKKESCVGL
UniProt P22303: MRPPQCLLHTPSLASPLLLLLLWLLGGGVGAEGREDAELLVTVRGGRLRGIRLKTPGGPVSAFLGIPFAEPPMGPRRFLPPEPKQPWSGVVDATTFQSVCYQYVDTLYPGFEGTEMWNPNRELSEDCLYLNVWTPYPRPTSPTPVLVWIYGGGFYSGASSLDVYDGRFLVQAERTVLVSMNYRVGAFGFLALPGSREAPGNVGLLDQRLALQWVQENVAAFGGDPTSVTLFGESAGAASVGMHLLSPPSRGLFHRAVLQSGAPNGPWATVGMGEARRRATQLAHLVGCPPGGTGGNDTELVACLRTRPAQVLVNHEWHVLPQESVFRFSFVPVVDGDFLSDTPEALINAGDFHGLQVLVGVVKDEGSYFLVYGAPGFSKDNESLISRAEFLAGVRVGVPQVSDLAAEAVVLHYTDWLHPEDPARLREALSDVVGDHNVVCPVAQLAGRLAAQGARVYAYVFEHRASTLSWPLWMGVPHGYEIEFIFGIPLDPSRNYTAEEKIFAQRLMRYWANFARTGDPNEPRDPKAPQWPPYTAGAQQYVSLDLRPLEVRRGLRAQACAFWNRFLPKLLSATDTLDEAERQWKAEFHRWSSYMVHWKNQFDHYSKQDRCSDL

The target of the experiment is Cholinesterases; ACHE & BCHE (Homo sapiens) (UniProt P06276+P22303). Put plainly: Selectivity index, ratio of IC50 for human plasmatic BChE to IC50 for human recombinant AChE.

In the case of `c1cc[n+](CCCCCCCCCC[n+]2cccc3ccccc32)cc1`, the Ratio IC50 turned out to be 630.
With `C=CC[N+](C)(C)c1ccc(CCC(=O)CCc2ccc([N+](C)(C)CC=C)cc2)cc1` the figure was 11800.
